Reference: patent US10226514B2 (dated 2019)

Tested on: JNK
Assay: JNK activation in cells (c-Jun phosphorylation)
Format: cell-based
Details: inhibitor 10 μM 30 minutes, then anisomycin 25 ng/ml two hours

## CCOc1nc(NC(=O)Cc2cc(OC)ccc2OC)cc(N)c1C#N [JNK inhibitor VIII]
  anisomycin-induced JNK activation (c-Jun phosphorylation): completely abolishing
